In patent US4351948A, “Imidazole hydrazone derivatives” (priority 1980, dated 1982):

Assay: in vivo
Conditions: mouse, iv

Question: Which LD50 at 168 h does the source give for `Clc1ccc(C(Cn2ccnc2)OCc2ccsc2Cl)c(Cl)c1` (stereo not shown) [Tioconazole, 1-[2-[(2-Chloro-3-thienyl)methoxy]-2-(2,4-dichlorophenyl)ethyl]-1H-imidazole] here?
Answer: 188 mg/kg
